{
  "source": "patent EP4775596A1",
  "about": "“CYSTEINE ENGINEERED ANTIBODY AND IMMUNOCONJUGATE” (priority 2023, dated 2025)",
  "key": {"[1]": {"tested_on": "Human mammary adenocarcinoma SK-BR-3 cells", "experiment": "In vitro cell proliferation assay (CellTiter-Glo, 6 days)", "type": "cell-based", "conditions": "for pEC50: killing of SK-BR-3 cells, 6 days"}, "[2]": {"tested_on": "Human gastric cancer cells NCI-N87", "experiment": "In vivo efficacy evaluation in tumor-bearing mice", "parameters": "species or system CB17-SCID mice", "conditions": "DAR2 ADC study; NCI-N87 subcutaneous, administered once on day 12, dose shown in FIG. 9, tumor volume every three days", "protocol": "Transgenic mice with high expression of Her2 were used to determine the in vivo efficacy of ADCs. Human gastric cancer cells NCI-N87 (purchased from ATCC) were subcutaneously transplanted into CB17-SCID mice (6-8 weeks old, Beijing Vital River Laboratory Animal Technology Co., Ltd.), which were inoculated with 2×10^6 cells; the tumor size was measured and monitored using a vernier caliper and average tumor volume was calculated.\nThe tumor volume was measured every three days for each administration group."}},
  "note": "pEC50: −log10 of the molar value.",
  "data": [
    {"substance": "TZB-Dxd-DAR4: Randomly conjugated control ADC of Trastuzumab and mc-GGFG-Dxd with an average DAR of 4", "values": [
      {"measurement": "pEC50", "setting": "[1]; Table 8-1", "value": 9.96},
      {"measurement": "pEC50", "setting": "[1]; Table 8-2", "value": 9.77},
      {"measurement": "tumor inhibitory effect / efficacy", "setting": "[2]", "value": "least effective"}
    ]},
    {"substance": "TZB-Dxd-DAR8: DAR8 control ADC prepared from Trastuzumab fully reduced with TCEP and mc-GGFG-Dxd", "values": [
      {"measurement": "killing effect", "setting": "[1]; SK-BR-3 cells, comparison between ADC groups, in words", "value": "strongest killing effect"},
      {"measurement": "pEC50", "setting": "[1]; Table 8-1", "value": 10.18},
      {"measurement": "pEC50", "setting": "[1]; Table 8-2", "value": 10.48},
      {"measurement": "tumor inhibitory effect / efficacy", "setting": "[2]", "value": "strongest tumor inhibitory effect"}
    ]}
  ]
}
